The list shows a part of the results, in another mix than the full data. Calls of active or inactive are those of the source. Calls come from the whole dose curve; as a rule, active = well fitted inhibition curve with a large enough effect; inconclusive = small, poorly fitted or top-dose-only effect; inactive = no such curve, though single readings can be large or run the other way.
Target: Isocitrate dehydrogenase [NADP] cytoplasmic (Homo sapiens) (UniProt O75874)
Test: qHTS for Inhibitors of mutant isocitrate dehydrogenase 1 (IDH1): qHTS; note: nearly all actives have a fitted effect of over 65% in size
Details: IDH1-R132H enzyme, NADPH consumption, diaphorase/resazurin fluorescence; at 76.6 µM (top of the series) unless noted
Text: Unbiased genomic sequencing for 22 glioma genomes found recurrent mutation of isocitrate dehydrogenase 1 (IDH1) on chromosome 2q33-a gene encoding the cytosolic isoform of IIDH1associated with the tricarboxylic acid cycle (TCA) that catalyzes the oxidative decarboxylation of isocitrate, yielding alpha-ketoglutarate and CO2 via NADP+ to NADPH conversion. Subsequent studies confirmed the recurrent IDH mutations in up to 70% of secondary gliomas and in 10% of AML cases. […] This in effect defines IDH1 as an oncogene, and provides an extraordinary opportunity to discover chemical probes against mutant IDH1 that may translate into much needed new therapies for glioma and AML patients. […] NIH Chemical Genomics Center [NCGC] NIH Molecular Libraries Probe Centers Network [MLPCN] MLPCN Grant: DA032129 Assay Submitter (PI): Lenny Dang, Agios Pharmaceuticals
IDH1-R132H (0.5 ug/mL) was dispensed into black, solid-bottom 1536-well plates at 3 uL/well in 20 mM Tris-HCl (pH 7.5), 150 mM NaCl, 10 mM MgCl2, 4 mM beta-ME, and 0.05% protease-free BSA. Then, 23 nL of compounds or DMSO were delivered to each well using a pin tool. A pre-read was run on the Viewlux to identify fluorescent compounds (540 nm excitation filter, 598 nm emission filter, bodipy mirror and 2 second exposure). After 30 minutes of incubation with compound, 3 uL of substrate mix were dispensed (0.016 mM NADPH, 2 mM alpha-KG, 20 mM Tris-HCl (pH 7.5), 150 mM NaCl, 10 mM MgCl2, and 0.05% protease-free BSA). Plates were spun for 1 min at 1000xg and incubated at room temperature for 80 min. Then 1.5 uL of each detection reagent component for the coupling system were added (0.12 mg/mL diaphorase and 0.072 mM resazurin, each in 20 mM Tris-HCl (pH 7.5), 150 mM NaCl, 10 mM MgCl2, and 0.05% protease-free BSA ) The protein, substrate and two detection components were maintained at 4 °C throughout the screen. Additionally, the substrate and resazurin reagents were protected from light. The plates were measured on an Envision plate reader for fluorescence signal using a 540 nm excitation filter and 590 nm emission filter with 10 flashes. 1x and 0x (no-enzyme) IDH1-R132H enzyme control were used to normalize %Activity of identified inhibitors; 0x enzyme values corresponded to 100% Activity (full inhibition), while 1x IDH1-R132H enzyme values were used to normalize 0%Activity (no inhibition). Concentration-response curves were fitted to the signals arising from the resulting fluorescence. The concentration-effect curves were then classified based on curve quality (r2), response magnitude and degree of measured activity, and compounds were subsequently categorized based on their curve class. […] Keywords: isocitrate dehydrogenase, IDH1, IDH1-R132H, MLSMR, MLPCN, NIH Roadmap, qHTS, NCGC
% is set by controls: 0 for no effect and ±100 for the full control effect.

Amino acid sequences for entries named in this document (tags omitted).
UniProt O75874, whole entry R132H: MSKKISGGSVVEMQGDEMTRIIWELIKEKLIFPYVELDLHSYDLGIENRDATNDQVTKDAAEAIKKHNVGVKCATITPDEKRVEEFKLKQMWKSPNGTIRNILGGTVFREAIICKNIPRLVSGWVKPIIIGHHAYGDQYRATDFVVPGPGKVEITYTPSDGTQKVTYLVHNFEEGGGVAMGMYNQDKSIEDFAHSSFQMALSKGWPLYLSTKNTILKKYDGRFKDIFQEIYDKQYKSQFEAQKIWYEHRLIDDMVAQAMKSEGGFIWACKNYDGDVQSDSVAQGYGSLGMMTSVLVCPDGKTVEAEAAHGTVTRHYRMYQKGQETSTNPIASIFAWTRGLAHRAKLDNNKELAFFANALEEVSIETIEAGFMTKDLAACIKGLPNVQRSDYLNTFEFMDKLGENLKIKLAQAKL

SMILES	activity change, negative = inhibition
CN(C)C(=O)c1c([N+](=O)[O-])cc([N+](=O)[O-])cc1[N+](=O)[O-]	inactive: 10.9%
CCN(CC)CC(O)COC(=O)C(O)(c1ccccc1)C1CCCCC1 (stereo unspecified)	inactive: 7.73%
COc1ccc(OP(C)(=O)Nc2ccc(Br)cc2)cc1 (stereo unspecified)	inactive: 1.3%
COc1ccccc1OP(C)(=O)Nc1c(C)n(C)n(-c2ccccc2)c1=O (stereo unspecified)	inactive: -3.23%
O=C(OCCCN1CCCC1)C(O)(c1ccccc1)C1CCCCC1 (stereo unspecified)	inactive: 24.9%
CP(=O)(Oc1ccccc1)N1CCOC1=O (stereo unspecified)	inactive: 1.58%
CCc1ccc(OP(C)(=O)Nc2cccnc2)cc1 (stereo unspecified)	inactive: 7.26%
Cc1c(NP(C)(=O)Oc2ccc(C(C)C)cc2)c(=O)n(-c2ccccc2)n1C (stereo unspecified)	inactive: 3.88%
O=[N+]([O-])c1cc([N+](=O)[O-])c(Nc2ccccn2)c([N+](=O)[O-])c1	inactive: 25.4%
CP(=O)(Nc1ccccn1)Oc1ccccc1 (stereo unspecified)	inactive: 0.542%
COc1ccccc1OP(C)(=O)Nc1ccc(C)cc1C (stereo unspecified)	inactive: -0.687%
CCc1ccc(OP(C)(=O)O)cc1	inactive: 2.28%
COc1ccccc1OP(C)(=O)Nc1ccc(Br)cc1 (stereo unspecified)	inactive: 0.057%
COc1ccc(OP(C)(=O)Nc2ccccn2)cc1 (stereo unspecified)	inactive: 2.62%
CN(C)CCOC(=O)C(O)(c1ccccc1)C1CCCC1 (stereo unspecified)	inactive: 7%
CCCCCCCCCCCCCCCC1C[N+](C)(C)CCOP(C)(=O)O1 (stereo unspecified)	inactive: 2.15%
CP(=O)(Nc1ccc(Cl)cc1Cl)Oc1ccccc1 (stereo unspecified)	inactive: -8.12%
CP(=O)(OCCOc1ccccc1)OCCOc1ccccc1	inactive: 2.89%
Cc1cc(C)cc(OP(C)(=O)Nc2cccc(C(F)(F)F)c2)c1 (stereo unspecified)	inactive: 0.12%
COc1ccccc1OP(C)(=O)Nc1ccc(C)c(C)c1 (stereo unspecified)	inactive: 0.929%
COc1ccc(OP(C)(=O)Nc2ccccc2Br)cc1 (stereo unspecified)	inactive: 0.972%

SMILES	activity change, negative = inhibition
COc1ccccc1OP(C)(=O)Nc1ccc(C)cc1 (stereo unspecified)	inactive: 1.05%
Cc1ccc(NP(C)(=O)Oc2ccccc2)c(C)c1 (stereo unspecified)	inactive: 0.237%
CCOC(=O)c1ccc(NP(C)(=O)Oc2ccccc2)cc1 (stereo unspecified)	inactive: -3.76%
Cc1cc(C)cc(OP(C)(N)=O)c1 (stereo unspecified)	inactive: 6.03%
COc1ccccc1OP(C)(=O)Nc1cc(Cl)ccc1C (stereo unspecified)	inactive: -7.16%
COc1ccc(OP(C)(=O)Nc2cccc(F)c2)cc1 (stereo unspecified)	inactive: 5.71%
O=[N+]([O-])c1cc([N+](=O)[O-])c(Nc2cccnc2)c([N+](=O)[O-])c1	inactive: 4.29% [at 38.3 µM]
O=[N+]([O-])c1ccc2c(c1)C=Nc1ccccc1O2	inactive: 0%
CC(C)(C)c1ccc(OP(C)(=O)Nc2ccc(SC(F)(F)F)cc2)cc1 (stereo unspecified)	inactive: 2.98%
Cc1cccc(C)c1OP(C)(N)=O (stereo unspecified)	inactive: 1.18%
CCN(CC)CCCOC(=O)C(O)(c1ccccc1)c1ccccc1	inactive: 2.04%
CCOC(=O)c1ccc(NP(C)(=O)Oc2ccc(OC)cc2)cc1 (stereo unspecified)	inactive: 0.499%
O=[N+]([O-])c1cc([N+](=O)[O-])c(O)c([N+](=O)[O-])c1.c1ccc(Oc2ccncc2)cc1	inactive: -2.81%
CCOP(C)(=S)SCC(=O)NC(C)C(=O)O (stereo unspecified)	inactive: 13.1%
CP(=O)(Nc1ccccn1)Oc1ccc(Cl)cc1 (stereo unspecified)	inactive: -6.18%
Cc1cccc(C)c1OP(C)(=O)Nc1ccc(SC(F)(F)F)cc1 (stereo unspecified)	inactive: -1.58%
CP(=O)(Nc1ccc(SC(F)(F)F)cc1)Oc1ccc(Cl)cc1 (stereo unspecified)	inactive: -7.4%
CP(=O)(Oc1ccccc1)OC(c1ccccc1)C(F)(F)F (stereo unspecified)	inactive: 0.929%
CP(=O)(NC(=O)Nc1ccccc1)Oc1ccccc1 (stereo unspecified)	inactive: -6.63%
CCc1ccc(OP(C)(=O)N2CCN(c3ccc([N+](=O)[O-])cc3)CC2)cc1 (stereo unspecified)	inactive: 1.57%
Cc1cc(C)cc(OP(C)(=O)Nc2ccc(SC(F)(F)F)cc2)c1 (stereo unspecified)	inactive: 5.42%

SMILES	activity change, negative = inhibition
CP(=S)(Nn1cnnc1)Oc1ccccc1 (stereo unspecified)	inactive: -1.6%
CP(=O)(Nc1ccccc1Br)Oc1ccccc1 (stereo unspecified)	inactive: 3.69%
COc1ccccc1OP(C)(=O)Nc1ccccc1 (stereo unspecified)	inactive: 13.1%
COc1ccccc1OP(C)(=O)Nc1c(C)cccc1C (stereo unspecified)	inactive: 6.03%
CN1CCCCC1COC(=O)C1(O)c2ccccc2CCc2ccccc21 (stereo unspecified)	inactive: -0.706%
CCCOc1ccc(NP(C)(=O)Oc2ccc(Cl)cc2)cc1 (stereo unspecified)	inactive: -9.17%
CP(=O)(Nc1ccc(SC(F)(F)F)cc1)Oc1ccccc1 (stereo unspecified)	inactive: -3.84%
CC1=C2N=C(C=C3N=C(C(C)=C4[N-][C@@](C)([C@@H]5N=C1[C@](C)(CCC(=O)NC[C@@H](C)OP(=O)([O-])O[C@H]1[C@@H](O)[C@@H](n6cnc7cc(C)c(C)cc76)O[C@@H]1CO)[C@H]5CC(N)=O)[C@@](C)(CC(N)=O)[C@@H]4CCC(N)=O)[C@@](C)(CC(N)=O)[C@@H]3CCC(N)=O)C(C)(C)[C@@H]2CCC(N)=O.[C-]#N.[Co+3]	inactive: 13.9%
O=[N+]([O-])c1cc([N+](=O)[O-])c(Nc2nnnn2CCO)c([N+](=O)[O-])c1	inactive: 14.9%
O=[N+]([O-])c1cc([N+](=O)[O-])c(-c2cnn(-c3ccccc3)c2)c([N+](=O)[O-])c1	inactive: 4.59%
Cc1nc2ccc3ccccc3c2s1.O=[N+]([O-])c1cc([N+](=O)[O-])c(O)c([N+](=O)[O-])c1	inactive: 2.29%
O=[N+]([O-])c1cc([N+](=O)[O-])c(-n2nnc3ccccc32)c([N+](=O)[O-])c1	inactive: -6.25%
Cc1ccc(C)c(NP(C)(=O)Oc2ccccc2)c1 (stereo unspecified)	inactive: 6.46%
Cc1cc(C)cc(OP(C)(=O)Nc2ccccn2)c1 (stereo unspecified)	inactive: 0.1%
CP(=O)(Nc1cccc(Br)c1)Oc1ccccc1 (stereo unspecified)	inactive: 4.44%
COc1ccccc1OP(C)(=O)Nc1cccc(Br)c1 (stereo unspecified)	inactive: 5.77%
CCOC(=O)c1ccc(NP(C)(=O)Oc2cc(C)cc(C)c2)cc1 (stereo unspecified)	inactive: 10.5%
Cc1cc(C)cc(OP(C)(=O)Nc2ccc(C)cc2C)c1 (stereo unspecified)	inactive: 1.26%
CC1=NCCc2c1[nH]c1ccccc21.O=[N+]([O-])c1cc([N+](=O)[O-])c(O)c([N+](=O)[O-])c1	inactive: -0.506%
